The test concerns the target 5-hydroxytryptamine receptor 1A (Rattus norvegicus, UniProt P19327). Briefly: Binding affinity towards 5-hydroxytryptamine 1A receptor by the displacement of [125I]trans-8-OH-PIPAT in membrane homogenates of hippocampal tissue of rat brain. It is filed as tissue-based, Hippocampus. For orientation: In a radioligand displacement assay an active substance lowers the binding of a labelled ligand.

Sequences of proteins named here, by UniProt entry; tags and fusion partners are left off.
UniProt P19327, whole entry: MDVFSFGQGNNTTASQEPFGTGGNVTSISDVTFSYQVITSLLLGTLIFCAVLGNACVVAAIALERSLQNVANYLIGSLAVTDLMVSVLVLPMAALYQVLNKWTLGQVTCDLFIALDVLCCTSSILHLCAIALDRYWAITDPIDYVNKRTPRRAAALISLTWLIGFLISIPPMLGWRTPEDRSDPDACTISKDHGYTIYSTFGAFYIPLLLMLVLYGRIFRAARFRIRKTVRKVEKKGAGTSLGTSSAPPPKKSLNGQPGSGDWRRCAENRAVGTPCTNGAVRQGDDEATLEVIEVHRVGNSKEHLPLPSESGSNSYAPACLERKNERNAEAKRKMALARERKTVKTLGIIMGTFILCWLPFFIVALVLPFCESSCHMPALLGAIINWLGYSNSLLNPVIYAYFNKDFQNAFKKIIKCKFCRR

Regarding `NCCc1c[nH]c2ccc(O)cc12` [SEROTONIN], the Ki (in general, the dissociation constant of the complex between target and ligand, obtained from inhibition or displacement) was found to be 4.31 nM.
